{
  "source": "ChEMBL document CHEMBL1143479",
  "biological_target": "Carbonic anhydrase 2 (Homo sapiens, UniProt P00918)",
  "data": [
    {"smiles": "NS(=O)(=O)c1cccc(NC(=O)Nc2ccccc2)c1", "values": [
      {"measurement": "Ki", "value": 150, "unit": "nM"}
    ]}
  ]
}
